Data reported in PMC10811212 (Frontiers in Oncology, 2024).

Tested on: GA1224 gastric adenocarcinoma PDTX (FGFR2 amplification)
Conditions: all treatment groups

Structure (SMILES): COc1cc(CCc2cc(-c3nc4ccc(N5CCN(C)CC5)cc4[nH]3)n[nH]2)cc(OC)c1 [CPL304110, 2-{5-[2-(3,5-Methoxyphenyl)ethyl]-1H-pyrazol-3-yl}-5-(4-methylpiperazine-1-yl)-1H-benzo[d]imidazole]
- tumor regrowth during 7-day treatment-free period, GA1224: no tumor regrowth was observed
